Common to all, as to format: biochemical
For assay [1], the target named is T1, activated ERK2 (Homo sapiens (Human), UniProt P28482). Kind of assay: Activated ERK2 kinase assay, ERK2 New conditions (AlphaScreen, ERKtide phosphorylation). The settings on record: 0.25 nM ERK2, 200 nM ERKtide peptide, 35 μM ATP, 30 min preincubation. The protocol:
The following assay conditions (ERK2 New) were used for some compounds in the following Table, and provide substantially similarIC50s to the assay described above, for IC50 about 0.1 μM or above. […]
Compound potency against activated ERK2 is determined using a kinase assay that measures ERK2-catalyzed phosphorylation of biotinylated ERKtide peptide substrate ([Biotin]-AH[…]-[NH2], the peptide sequence derived from EGF receptor: SEQ ID NO:1). The assay is carried out in 50 mM HEPES [pH 7.5], 5 mM MgCl2, 1 mM DTT, 0.01% Tween-20, 0.05% BSA using 0.25 nM ERK2, 200 nM ERKtide peptide and 35 μM ATP (all concentrations are final in the reaction) in a total volume of 10.25 μL. […] Compound dilution series are prepared in 100% DMSO. ERK2 is preincubated with compounds for 30 minutes at ambient temperature. Reaction is initiated by addition of a substrate cocktail of ERKtide peptide and ATP and is allowed to proceed for 2-3 hours at ambient temperature. Reaction is terminated by addition of 10 μL of a 2× stop buffer consisting of 100 mM Tris-Cl [pH 7.5], 25 mM EDTA, 0.01% Tween 20, 10 μg/mL of AlphaScreen Protein A Acceptor Beads, 10 μg/mL of Streptavidin Donor Beads (PerkinElmer, Waltham, Mass.), and 1.4 μg/mL phospho-EGF Receptor (Thr669) antibody (Cat #3056, Cell Signaling Technology, Danvers, Mass.). Terminated reactions are read, after overnight incubation in the dark, on an EnVision Multilabel Plate Reader (PerkinElmer, Waltham, Mass.), with excitation and emission wavelengths set to 680 nm and 570 nm, respectively. IC50 values are determined using a four-parameter fit.

Protein sequences, listed by entry. Tags and fused reporters are not part of them.
UniProt P28482, whole entry: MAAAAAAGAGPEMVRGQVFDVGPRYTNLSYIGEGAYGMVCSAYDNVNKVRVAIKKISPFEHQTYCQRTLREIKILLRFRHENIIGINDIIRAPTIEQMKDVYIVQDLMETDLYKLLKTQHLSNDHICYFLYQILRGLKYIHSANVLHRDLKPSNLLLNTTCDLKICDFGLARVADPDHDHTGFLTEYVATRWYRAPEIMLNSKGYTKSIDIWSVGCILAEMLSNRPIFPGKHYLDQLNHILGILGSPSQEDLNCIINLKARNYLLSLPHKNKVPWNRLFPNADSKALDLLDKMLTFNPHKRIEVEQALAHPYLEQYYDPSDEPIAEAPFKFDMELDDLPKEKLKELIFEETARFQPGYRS

For assay [2], the target named is T1, activated ERK2. Kind of assay: Activated ERK2 (20 pM) Kinase Assay (AlphaScreen, ERKtide phosphorylation). The settings on record: 0.02 nM ERK2, 400 nM ERKtide peptide, 35 μM ATP, 30 min preincubation. On the procedure: Activated ERK2 (20 pM) Kinase Assay:
Compound potency against activated ERK2 was determined using a kinase assay that measures ERK2-catalyzed phosphorylation of biotinylated ERKtide peptide substrate ([Biotin]-AH[…]-[NH2], the peptide sequence derived from EGF receptor: SEQ ID NO:1). The assay was carried out in 20 mM HEPES [pH 7.5], 5 mM MgCl2, 1 mM DTT, 0.01% Tween-20, 0.05% BSA using 0.02 nM ERK2, 400 nM ERKtide peptide and 35 μM ATP (all concentrations are final in the reaction) in a total volume of 10.25 μL. […] Compound dilution series were prepared in 100% DMSO. ERK2 was preincubated with compounds for 30 minutes at ambient temperature. Reaction was initiated by addition of a substrate cocktail of ERKtide peptide and ATP and was allowed to proceed for 4 hours at ambient temperature. Reaction was terminated by addition of 10 μL of a 2× stop buffer consisting of 100 mM Tris-Cl [pH 7.5], 25 mM EDTA, 0.01% Tween 20, 20 μg/mL of AlphaScreen Protein A Acceptor Beads, 20 μg/mL of Streptavidin Donor Beads (PerkinElmer, Waltham, Mass.), and 1:1000 dilution phospho-EGF Receptor (Thr669) antibody (Cat #8808, Cell Signaling Technology, Danvers, Mass.). Terminated reactions were read, after overnight incubation in the dark, on an EnVision Multilabel Plate Reader (PerkinElmer, Waltham, Mass.), with excitation and emission wavelengths set to 680 nm and 570 nm, respectively. IC50 values were determined using a four-parameter fit.

For a further assay, the target named is ERK2 (Homo sapiens (Human), UniProt P28482). Kind of assay: ERK2 Alphascreen. In general terms: Alpha assays give light when donor and acceptor beads are brought close together.

As for `Nc1ncc([C@@H]2CC[C@H](O)C2)nc1-c1ccc(C(=O)NCc2ccccc2)c(F)c1` (racemic) [Example 102, (+/−)-4-(3-amino-6-((1R,3S)-3-hydroxycyclopentyl)pyrazin-2-yl)-N-benzyl-2-fluorobenzamide], the IC50 on activated ERK2 [1] stood at 91.7 nM.

On activated ERK2 [1], `Nc1ncc([C@@H]2CC[C@@H](O)C2)nc1-c1ccc(C(=O)NCc2ccccc2)c(F)c1` (racemic) [Example 103, (+/−)-4-(3-amino-6-((1R,3R)-3-hydroxycyclopentyl)pyrazin-2-yl)-N-benzyl-2-fluorobenzamide] had an IC50 of 31.6 nM.

`C[C@@H](O)Cc1cnc(N)c(-c2ccc(C(=O)NCc3ccccc3)c(F)c2)n1` (single isomer, unassigned) [Example 23]: 393 nM corresponded to half-maximal inhibition at activated ERK2 [1] (IC50).

As for `C[C@H](O)Cc1cnc(N)c(-c2ccc(C(=O)NCc3ccccc3)c(F)c2)n1` (single isomer, unassigned) [Example 24], the IC50 against activated ERK2 [1] came out at 453 nM.

As to `C[C@@H](NC(=O)c1ccc(-c2cc([C@@H]3CCN(C)C(=O)C3)cnc2N)cc1F)c1cccc(Cl)c1` [Example 33, 4-(2-amino-5-((R)-1-methyl-2-oxopiperidin-4-yl)pyridin-3-yl)-N—((R)-1-(3-chlorophenyl)ethyl)-2-fluorobenzamide], the results for the concentration for half-maximal inhibition (IC50) at activated ERK2 [2] and against activated ERK2 [1] were 13.2 nM and 18.2 nM, respectively.

With `C[C@@H](NC(=O)c1ccc(-c2cc([C@H]3CCN(C)C(=O)C3)cnc2N)cc1F)c1cccc(Cl)c1` [Example 34, 4-(2-amino-5-((S)-1-methyl-2-oxopiperidin-4-yl)pyridin-3-yl)-N—((R)-1-(3-chlorophenyl)ethyl)-2-fluorobenzamide], the values for the IC50 against activated ERK2 [2] and at activated ERK2 [1] were 3.98 nM and 7.13 nM, respectively.

`Cn1cc(-c2cnc(N)c(-c3ccc(C(=O)N[C@@H]4C[C@H]4c4ccccc4)c(F)c3)c2)cn1` [Example 131, 4-(2-amino-5-(1-methyl-1H-pyrazol-4-yl)pyridin-3-yl)-2-fluoro-N-((1R,2S)-2-phenylcyclopropyl)benzamide]: on activated ERK2 [1], the 50% inhibitory concentration (IC50) is 99.2 nM. This counts as double-digit nanomolar.

Turning to `Cc1ncc(-c2cnc(N)c(-c3ccc(C(=O)N[C@H](CO)c4cccc(Cl)c4)c(F)c3)c2)n1C` [Example 162, (S)-4-(2-amino-5-(1,2-dimethyl-1H-imidazol-5-yl)pyridin-3-yl)-N-(1-(3-chlorophenyl)-2-hydroxyethyl)-2-fluorobenzamide], on activated ERK2 [1], the 50% inhibitory concentration (IC50) turned out to be 0.487 nM.

As for `CC(=O)N[C@H]1CC[C@H](c2cnc(N)c(-c3ccc(C(=O)N[C@H](CO)c4cccc(Cl)c4)c(F)c3)n2)CC1` [Example 193, 4-(6-((1r,4S)-4-acetamidocyclohexyl)-3-aminopyrazin-2-yl)-N—((S)-1-(3-chlorophenyl)-2-hydroxyethyl)-2-fluorobenzamide], the values for the half-maximal inhibitory concentration (IC50) against activated ERK2 [2] and against activated ERK2 [1] were 0.561 nM and 1.19 nM, respectively.

As for `CS(=O)(=O)N[C@H]1CC[C@H](c2cnc(N)c(-c3ccc(C(=O)N[C@H](CO)c4cccc(Cl)c4)c(F)c3)n2)CC1` [Example 194, 4-(3-amino-6-((1r,4S)-4-(methylsulfonamido)cyclohexyl)pyrazin-2-yl)-N—((S)-1-(3-chlorophenyl)-2-hydroxyethyl)-2-fluorobenzamide], inhibition against activated ERK2 [1] was half-maximal at 0.26 nM (IC50).

The molecule `COC(=O)N[C@H]1CC[C@H](c2cnc(N)c(-c3ccc(C(=O)N[C@H](CO)c4cccc(Cl)c4)c(F)c3)n2)CC1` [Example 195, methyl ((1S,4r)-4-(5-amino-6-(4-(((S)-1-(3-chlorophenyl)-2-hydroxyethyl)carbamoyl)-3-fluorophenyl)pyrazin-2-yl)cyclohexyl)carbamate] returned an IC50 on activated ERK2 [1] of 0.282 nM.

`Nc1ncc([C@H]2CC[C@H](NC(=O)CO)CC2)nc1-c1ccc(C(=O)N[C@H](CO)c2cccc(Cl)c2)c(F)c1` [Example 196, 4-(3-amino-6-((1r,4S)-4-(2-hydroxyacetamido)cyclohexyl)pyrazin-2-yl)-N—((S)-1-(3-chlorophenyl)-2-hydroxyethyl)-2-fluorobenzamide]: the concentration for half-maximal inhibition (IC50) on activated ERK2 [2] was determined as 0.363 nM; on activated ERK2 [1], 0.929 nM.

The molecule `Cc1cccc(CNC(=O)c2ccc(-c3cc(C4CCOCC4)cnc3N)cc2F)n1` [Example 205, 4-(2-amino-5-(tetrahydro-2H-pyran-4-yl)pyridin-3-yl)-2-fluoro-N-((6-methylpyridin-2-yl)methyl)benzamide] yielded an IC50 at ERK2 of 80.2 nM. In other words, the double-digit nanomolar range.

On activated ERK2 [1], `Cc1nn(C)cc1-c1cnc(N)c(-c2ccc(C(=O)N[C@H](CN)c3cccc(Cl)c3)c(F)c2)c1` [Example 226, (S)—N-(2-amino-1-(3-chlorophenyl)ethyl)-4-(2-amino-5-(1,3-dimethyl-1H-pyrazol-4-yl)pyridin-3-yl)-2-fluorobenzamide] yielded a half-inhibitory concentration (IC50) of 0.0497 nM. That is a picomolar value.

As for `Cc1nn(C)c(C)c1-c1cnc(N)c(-c2ccc(C(=O)N[C@H](CO)c3ccccc3)c(F)c2)n1` [Example 249, (S)-4-(3-amino-6-(1,3,5-trimethyl-1H-pyrazol-4-yl)pyrazin-2-yl)-2-fluoro-N-(2-hydroxy-1-phenylethyl) benzamide], 3.71 nM corresponded to half-maximal inhibition against activated ERK2 [1] (IC50).

As to `CS(=O)(=O)c1cc(Cl)cc(CNC(=O)c2ccc(-c3nc(C4CC4)cnc3N)cc2F)c1` [Example 285, 4-(3-amino-6-cyclo-propylpyrazin-2-yl)-N-(3-chloro-5-(methylsulfonyl)benzyl)-2-fluorobenzamide], the IC50 at activated ERK2 [1] was determined as 26.6 nM.

Consider `Cn1nncc1-c1cnc(N)c(-c2ccc(C(=O)N[C@H](CO)c3cc(F)cc(Cl)c3)c(F)c2)c1` [Example 302, (S)-4-(2-amino-5-(1-methyl-1H-1,2,3-triazol-5-yl)pyridin-3-yl)-N-(1-(3-chloro-5-fluorophenyl)-2-hydroxyethyl)-2-fluorobenzamide], for which the IC50 at activated ERK2 [2] was 0.0547 nM; on activated ERK2 [1], 0.169 nM.

Turning to `CS(=O)(=O)c1cccc([C@@H](CO)NC(=O)c2ccc(-c3nc(C4CCOCC4)cnc3N)cc2F)c1` [Example 308, (S)-4-(3-amino-6-(tetrahydro-2H-pyran-4-yl)pyrazin-2-yl)-2-fluoro-N-(2-hydroxy-1-(3-(methylsulfonyl)phenyl)ethyl) benzamide], the half-maximal inhibitory concentration (IC50) on activated ERK2 [2] worked out at 0.0345 nM; against activated ERK2 [1], 0.129 nM.

Molecule `CS(=O)(=O)c1cc(Cl)cc(CNC(=O)c2ccc(-c3nc(C4CCOCC4)cnc3N)cc2F)c1` [Example 311, 4-(3-amino-6-(tetrahydro-2H-pyran-4-yl)pyrazin-2-yl)-N-(3-chloro-5-(methylsulfonyl)benzyl)-2-fluorobenzamide] displayed an IC50 at activated ERK2 [1] of 1.19 nM.

At activated ERK2 [1], `CC(C)n1cc(-c2cnc(N)c(-c3ccc(C(=O)N[C@H](CO)c4ccccc4)c(F)c3)n2)cn1` [Example 312, (S)-4-(3-amino-6-(1-isopropyl-1H-pyrazol-4-yl)pyrazin-2-yl)-2-fluoro-N-(2-hydroxy-1-phenylethyl) benzamide] returned a 50% inhibitory concentration (IC50) of 3.74 nM.

For `Nc1ncc([C@H]2CC[C@H](O)CC2)nc1-c1ccc(C(=O)N[C@H](CO)c2cccc(Cl)c2)c(F)c1` [Example 417, 4-(3-amino-6-((1r,4S)-4-hydroxy-cyclohexyl)pyrazin-2-yl)-N-((S)-1-(3-chlorophenyl)-2-hydroxyethyl)-2-fluorobenzamide], the 50% inhibitory concentration (IC50) against activated ERK2 [2] came to 0.0928 nM; on activated ERK2 [1] it was 0.69 nM.

With `Nc1ncc([C@H]2CC[C@@H](O)CC2)nc1-c1ccc(C(=O)N[C@H](CO)c2cccc(Cl)c2)c(F)c1` [Example 418, 4-(3-amino-6-((1s,4R)-4-hydroxy-cyclohexyl)pyrazin-2-yl)-N-((S)-1-(3-chlorophenyl)-2-hydroxyethyl)-2-fluorobenzamide], half-maximal inhibition against activated ERK2 [1] (IC50) required 1.28 nM.

Take `Nc1ncc(C2CCCCC2)nc1-c1ccc(C(=O)N[C@H](CO)c2cccc(Cl)c2)c(F)c1` [Example 422, (S)-4-(3-amino-6-cyclo-hexylpyrazin-2-yl)-N-(1-(3-chlorophenyl)-2-hydroxyethyl)-2-fluorobenzamide]: the half-inhibitory concentration (IC50) on activated ERK2 [2] came out at 0.0651 nM; on activated ERK2 [1], 0.187 nM.

Broadly, the IC50 is the concentration that gives 50% inhibition. Higher therefore signals a need for much substance.

For the origin of these results see patent US9242996B2 (Novartis AG, priority 2013, dated 2016).
